{"sequences": {"note": "Sequences of proteins named here, by UniProt entry; tags and fusion partners are left off.", "UniProt P41235, whole entry": "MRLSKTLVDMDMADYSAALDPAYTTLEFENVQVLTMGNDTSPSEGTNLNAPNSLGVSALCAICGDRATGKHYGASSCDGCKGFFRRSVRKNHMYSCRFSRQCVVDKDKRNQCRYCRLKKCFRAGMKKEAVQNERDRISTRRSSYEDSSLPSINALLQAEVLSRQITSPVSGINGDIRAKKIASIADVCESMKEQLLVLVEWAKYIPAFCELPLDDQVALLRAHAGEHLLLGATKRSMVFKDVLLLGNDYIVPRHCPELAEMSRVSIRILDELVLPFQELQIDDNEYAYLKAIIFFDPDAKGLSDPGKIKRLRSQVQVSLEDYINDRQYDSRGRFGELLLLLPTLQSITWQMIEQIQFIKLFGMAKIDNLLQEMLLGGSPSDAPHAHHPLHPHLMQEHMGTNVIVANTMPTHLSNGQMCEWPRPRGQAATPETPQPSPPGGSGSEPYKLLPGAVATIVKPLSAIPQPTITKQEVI"}, "source": "PubChem BioAssay AID1224865", "about": "(Sanford-Burnham Center for Chemical Genomics, 2016)", "note": "The entries are a selection whose mix differs from that of the whole data set. Activity calls are given as the source filed them. No stated cut-off is given here; in the data, active means activity change above about 30% (passing the limit was not always enough); inactive means the rest."}
{"biological_target": "Hepatocyte nuclear factor 4-alpha (Homo sapiens) (UniProt P41235)", "experiment": "HNF4-alpha DNA association modulation – biochemical, fluorescence polarization, FITC-DNA, primary screen (AID 1224865)", "settings": "HNF4a-FITC DNA binding, 1 h, at 10 µM, active compounds read high"}
{"smiles": "COc1ccccc1-c1ccccn1.O=[N+]([O-])c1cc([N+](=O)[O-])c(O)c([N+](=O)[O-])c1", "activity change": "inactive: 3.5%"}
{"smiles": "COc1ccc(N/C(=N/P(=O)(N2CCOCC2)N2CCOCC2)N2CCOCC2)cc1", "activity change": "inactive: 3.94%"}
{"smiles": "O=[N+]([O-])c1cc(Oc2ccc([N+](=O)[O-])cc2C(F)(F)F)cc([N+](=O)[O-])c1", "activity change": "inactive: -0.36%"}
{"smiles": "COc1cc(I)ccc1[As](=O)(O)O", "activity change": "inactive: 0.61%"}
{"smiles": "COc1ccc2nc(NP(=O)(c3ccccc3)c3ccccc3)sc2c1", "activity change": "inactive: -0.77%"}
{"smiles": "O=P1(N(CCCl)CCCl)Nc2ccccc2N1", "activity change": "inactive: 0.01%"}
{"smiles": "O=P1(N(CCCl)CCCl)OCCCN1CCCl", "note": "(centres undefined)", "activity change": "inactive: 2.06%"}
{"smiles": "Cc1cc(=O)[nH]c(N[N+](=O)[O-])n1", "activity change": "inactive: -1.35%"}
{"smiles": "CCN(CC)CCCOC(=O)C(O)(c1ccccc1)c1ccccc1", "activity change": "inactive: 3.6%"}
{"smiles": "O=C(OC1CN2CCC1CC2)C12CC3CC(CC(C3)C1)C2", "note": "(centres undefined)", "activity change": "inactive: -1.84%"}
{"smiles": "Cc1c2c(nc3ccccc13)SC(C(Cl)Cl)C2", "note": "(centres undefined)", "activity change": "inactive: 2.1%"}
{"smiles": "Cc1cc(C)cc(OP(C)(N)=O)c1", "note": "(centres undefined)", "activity change": "inactive: 3.19%"}
{"smiles": "O=[N+]([O-])c1cc([N+](=O)[O-])c(-c2ccn[nH]2)s1", "activity change": "inactive: -0.48%"}
{"smiles": "COc1ccc(OP(C)(=O)Nc2cccc(F)c2)cc1", "note": "(centres undefined)", "activity change": "inactive: 0.48%"}
{"smiles": "CCN(CC)C(=S)SC(NC=O)C(Cl)(Cl)Cl", "note": "(centres undefined)", "activity change": "inactive: -0.78%"}
{"smiles": "O=C(OC1CN2CCC1CC2)c1cccc2[nH]cnc12", "note": "(centres undefined)", "activity change": "inactive: -0.7%"}
{"smiles": "COc1ccccc1OP(C)(=O)Nc1cc(Cl)ccc1C", "note": "(centres undefined)", "activity change": "inactive: -1.47%"}
{"smiles": "CC(C)NC(=O)NP(=O)(Oc1ccccc1)Oc1ccccc1", "activity change": "inactive: -2.23%"}
{"smiles": "Cc1ccc(NP(C)(=O)Oc2ccccc2)c(C)c1", "note": "(centres undefined)", "activity change": "inactive: 2.36%"}
{"smiles": "CC(C)c1ccc(OP(=O)(Nc2ccccn2)Oc2ccccc2F)cc1", "note": "(centres undefined)", "activity change": "inactive: -0.29%"}
{"smiles": "COC(=O)C1(C)COP(=O)(N2CCCCCC2)OC1", "note": "(centres undefined)", "activity change": "inactive: -0.45%"}
{"smiles": "COc1ccccc1OP(C)(=O)Nc1ccc(C)cc1", "note": "(centres undefined)", "activity change": "inactive: 0.62%"}
{"smiles": "ClCCSc1nnc(-c2cccnc2)o1", "activity change": "inactive: -2.03%"}
{"smiles": "CCOC(=O)c1ccc(NP(C)(=O)Oc2ccccc2)cc1", "note": "(centres undefined)", "activity change": "inactive: 3.82%"}
{"smiles": "Cc1ccc2nc3c(c(C)c2c1)CC(C(Cl)Cl)S3", "note": "(centres undefined)", "activity change": "inactive: 1.52%"}
{"smiles": "O=[N+]([O-])c1ccc2c(c1)C=Nc1ccccc1O2", "activity change": "inactive: 4.42%"}
{"smiles": "Cc1cccc(C)c1OP(C)(N)=O", "note": "(centres undefined)", "activity change": "inactive: -2.08%"}
{"smiles": "CC(Cc1ccc(O)cc1)NCC(O)c1cc(O)cc(O)c1", "note": "(centres undefined)", "activity change": "inactive: 0.01%"}
{"smiles": "CC(C)(C)c1ccc(OP(C)(=O)Nc2ccc(SC(F)(F)F)cc2)cc1", "note": "(centres undefined)", "activity change": "inactive: 2.02%"}
{"smiles": "[N-]=[N+]=NC1CCCCC1NC(=O)c1cc([N+](=O)[O-])cc([N+](=O)[O-])c1", "note": "(centres undefined)", "activity change": "inactive: -7.18%"}
{"smiles": "Cc1ccc(OP(=O)(Nc2ccc([N+](=O)[O-])cn2)Oc2ccc(C)cc2)cc1", "activity change": "inactive: 3.09%"}
{"smiles": "COc1cc(C(=O)NCC2(N3CCOCC3)CCCCC2)ccc1OCC(C)C", "activity change": "inactive: -0.07%"}
{"smiles": "O=[N+]([O-])c1ccc(-c2cc([N+](=O)[O-])c(O)c([N+](=O)[O-])c2)cc1", "activity change": "inactive: -2.84%"}
{"smiles": "O=[As](O)(c1ccc(O)cc1)c1ccccc1O", "activity change": "inactive: -1.66%"}
{"smiles": "C[As](=O)(O)c1cccc(C(=O)O)c1", "activity change": "inactive: -2.2%"}
{"smiles": "O=[N+]([O-])c1cc([N+](=O)[O-])c(Nc2cccnc2)c([N+](=O)[O-])c1", "activity change": "inactive: 1.25%"}
{"smiles": "O=[N+]([O-])c1ccc(Nc2ccc(Oc3ccc([N+](=O)[O-])cc3[N+](=O)[O-])cc2)c([N+](=O)[O-])c1", "activity change": "inactive: -2.65%"}
{"smiles": "CP(=O)(Nc1ccccc1Br)Oc1ccccc1", "note": "(centres undefined)", "activity change": "inactive: 0.01%"}
{"smiles": "COc1ccccc1OP(C)(=O)Nc1ccccc1", "note": "(centres undefined)", "activity change": "inactive: 2.49%"}
{"smiles": "O=P(Nc1ccccn1)(c1cccc2ccccc12)c1cccc2ccccc12", "activity change": "inactive: 0.91%"}
{"smiles": "Cc1cc(SC(NC=O)C(Cl)(Cl)Cl)ncn1", "note": "(centres undefined)", "activity change": "inactive: -1.19%"}
{"smiles": "CCOC(=O)Nc1cccc([As](=O)(O)O)c1", "activity change": "inactive: 5.83%"}
{"smiles": "CP(=S)(Nn1cnnc1)Oc1ccccc1", "note": "(centres undefined)", "activity change": "inactive: -3.61%"}
{"smiles": "Cc1cc(SC(NC(=O)c2ccccc2)C(Cl)(Cl)Cl)nc(C(C)C)n1", "note": "(centres undefined)", "activity change": "inactive: 2.01%"}
{"smiles": "CCCCOc1ccc(C(=O)NCC2(N3CCCCC3)CCCCC2)cc1OC", "activity change": "inactive: 2.86%"}
{"smiles": "COP(=O)(OC)N1CC1c1ccccc1", "note": "(centres undefined)", "activity change": "inactive: 4.06%"}
{"smiles": "CC1CCNP(=O)(N(CCCl)CCCl)O1", "note": "(centres undefined)", "activity change": "inactive: -4.16%"}
{"smiles": "CCOC(=O)Nc1ccc([As](=O)(O)O)c(O)c1", "activity change": "inactive: 2.75%"}
{"smiles": "O=C(O)C(=O)c1ccc(N(CCCl)CCCl)cc1.c1ccc(Nc2ccccc2)cc1", "activity change": "inactive: -2.6%"}
{"smiles": "CP(=O)(Nc1ccccn1)Oc1ccc(Cl)cc1", "note": "(centres undefined)", "activity change": "inactive: 4.12%"}
{"smiles": "CCC(C)N(CC(C)C)C(=S)SC(NC(C)=O)C(Cl)(Cl)Cl", "note": "(centres undefined)", "activity change": "inactive: 3.36%"}
{"smiles": "CCOC(=O)c1ccc(NP(C)(=O)Oc2ccc(OC)cc2)cc1", "note": "(centres undefined)", "activity change": "inactive: -2.02%"}
{"smiles": "CCOC(=O)c1ccc(NC(=O)C(C)(CCl)SC)cc1", "note": "(centres undefined)", "activity change": "inactive: -3.92%"}
{"smiles": "O=[N+]([O-])c1cc([N+](=O)[O-])c(O)c([N+](=O)[O-])c1.c1ccc(Oc2ccncc2)cc1", "activity change": "inactive: -3.33%"}
{"smiles": "CSc1ccc(Nc2c([N+](=O)[O-])cc([N+](=O)[O-])cc2[N+](=O)[O-])cc1", "activity change": "inactive: -1.06%"}
{"smiles": "CCOP(C)(=S)SCC(=O)NC(C)C(=O)O", "note": "(centres undefined)", "activity change": "inactive: 1.39%"}
{"smiles": "O=C(OC1CN2CCC1CC2)c1cccc([N+](=O)[O-])c1", "note": "(centres undefined)", "activity change": "inactive: 2.8%"}
{"smiles": "Cc1cc(C)cc(OP(C)(=O)Nc2ccc(SC(F)(F)F)cc2)c1", "note": "(centres undefined)", "activity change": "inactive: 0.74%"}
{"smiles": "O=C(Nc1ccncc1[N+](=O)[O-])c1ccc([N+](=O)[O-])cc1[N+](=O)[O-]", "activity change": "inactive: 1.3%"}
{"smiles": "CCc1ccc(OP(C)(=O)N2CCN(c3ccc([N+](=O)[O-])cc3)CC2)cc1", "note": "(centres undefined)", "activity change": "inactive: 4.22%"}
{"smiles": "O=C(COc1ccccc1)OC1CN2CCC1CC2", "note": "(centres undefined)", "activity change": "inactive: 0.78%"}
{"smiles": "CP(=O)(NC(=O)Nc1ccccc1)Oc1ccccc1", "note": "(centres undefined)", "activity change": "inactive: 0.37%"}
{"smiles": "CP(=O)(Oc1ccccc1)OC(c1ccccc1)C(F)(F)F", "note": "(centres undefined)", "activity change": "inactive: -0.34%"}
{"smiles": "COC(=O)C1(C)COP(=O)(N2CCCC2)OC1", "note": "(centres undefined)", "activity change": "inactive: 4.23%"}
{"smiles": "Cc1ccc(Nc2c([N+](=O)[O-])cc([N+](=O)[O-])cc2[N+](=O)[O-])cc1", "activity change": "inactive: 0.28%"}
{"smiles": "Cc1cccc(C)c1OP(C)(=O)Nc1ccc(SC(F)(F)F)cc1", "note": "(centres undefined)", "activity change": "inactive: -0.54%"}
{"smiles": "CP(=O)(Nc1ccc(SC(F)(F)F)cc1)Oc1ccc(Cl)cc1", "note": "(centres undefined)", "activity change": "inactive: -1.06%"}
{"smiles": "COP1(=S)c2c(C)nn(CCC#N)c2N=C(c2ccc(F)cc2)N1C", "note": "(centres undefined)", "activity change": "inactive: -3.37%"}
{"smiles": "CC1(CBr)Cn2c(nc3ccccc3c2=O)S1", "note": "(centres undefined)", "activity change": "inactive: -2.36%"}
{"smiles": "Cc1nc2ccc3ccccc3c2s1.O=[N+]([O-])c1cc([N+](=O)[O-])c(O)c([N+](=O)[O-])c1", "activity change": "inactive: -0.87%"}
{"smiles": "CC(C)/C=N\\N=C(\\N)N[N+](=O)[O-]", "activity change": "inactive: 0.03%"}
{"smiles": "CN(C(=O)Cc1ccc(Cl)c(Cl)c1)[C@@H]1CCCC[C@H]1N1CCCC1", "activity change": "inactive: -3.81%"}
{"smiles": "Cc1ccc(S(=O)(=O)N(CCCN)CCCc2c(C)nc(N)[nH]c2=O)cc1.O=[N+]([O-])c1cc([N+](=O)[O-])c(O)c([N+](=O)[O-])c1", "activity change": "inactive: -3.11%"}
{"smiles": "COc1ccccc1CNC(=O)COC(=O)C(O)(c1ccccc1)c1ccccc1", "activity change": "inactive: 0.18%"}
{"smiles": "O=[N+]([O-])c1cc([N+](=O)[O-])c(-c2cnn(-c3ccccc3)c2)c([N+](=O)[O-])c1", "activity change": "inactive: 0.42%"}
{"smiles": "CC(C)(C)C(=O)NC(Sc1ncccn1)C(Cl)(Cl)Cl", "note": "(centres undefined)", "activity change": "inactive: 10.6%"}
{"smiles": "CN(Cc1cccnc1)C(=O)COc1ccc(Cl)c(Cl)c1.O=[N+]([O-])c1cc([N+](=O)[O-])c(O)c([N+](=O)[O-])c1", "activity change": "inactive: 1.6%"}
{"smiles": "O=P1(N(CCCl)CCCl)NCCC(C(F)(F)F)O1", "note": "(centres undefined)", "activity change": "inactive: -0.55%"}
{"smiles": "Clc1n[nH]nc1-c1nn[nH][15n]1", "activity change": "inactive: 0.31%"}
{"smiles": "CN(CCCl)Cc1cc(Cl)c(NC2=NCCN2)c(Cl)c1", "activity change": "inactive: 2.63%"}
{"smiles": "CCOP(=O)(Nc1ccc(C)cn1)OCC", "activity change": "inactive: -1.55%"}
{"smiles": "CCOP(=O)(NC(=NC(C)c1ccccc1)NC(C)c1ccccc1)OCC", "note": "(centres undefined)", "activity change": "inactive: -1.47%"}
{"smiles": "Nc1ccc(CCCCOc2ccccc2)cc1.O=[N+]([O-])c1cc([N+](=O)[O-])c(O)c([N+](=O)[O-])c1", "activity change": "inactive: 1.88%"}
{"smiles": "O=[N+]([O-])c1cc([N+](=O)[O-])c(-n2nnc3ccccc32)c([N+](=O)[O-])c1", "activity change": "inactive: 0.97%"}
{"smiles": "O=C(O)C(O)c1ccc(N(CCCl)CCCl)cc1.c1ccncc1", "note": "(centres undefined)", "activity change": "inactive: 0.83%"}
{"smiles": "O=P1(Nc2ccccn2)COc2ccccc2OC1", "activity change": "inactive: -0.88%"}
{"smiles": "CCC1=CC2Cc3nc4ccc(Cl)cc4c(N)c3C(C1)C2", "note": "(centres undefined)", "activity change": "inactive: 2.44%"}
{"smiles": "COc1ccc(-c2ccccn2)cc1.O=[N+]([O-])c1cc([N+](=O)[O-])c(O)c([N+](=O)[O-])c1", "activity change": "inactive: 2.3%"}
{"smiles": "O=P1(Nc2ccc(Br)cn2)COc2ccccc2OC1", "activity change": "inactive: 0.35%"}
{"smiles": "NS(=O)(=O)c1cccc(NC(=O)COC(=O)C(O)(c2ccccc2)c2ccccc2)c1", "activity change": "inactive: -4.06%"}
{"smiles": "Cc1ccc(OCC(=O)OC2CN3CCC2CC3)cc1", "note": "(centres undefined)", "activity change": "inactive: -0.58%"}
{"smiles": "O=[As](O)(c1cccs1)c1cccs1", "activity change": "inactive: -0.83%"}
{"smiles": "Nc1cccc([As](=O)(O)c2ccccc2)c1", "activity change": "inactive: -0.63%"}
{"smiles": "CP(=O)(Nc1ccc(SC(F)(F)F)cc1)Oc1ccccc1", "note": "(centres undefined)", "activity change": "inactive: 0.76%"}
